Laboratory results taken from ChEMBL document CHEMBL1153282, “N-substituted 2'-(aminoaryl)benzothiazoles as kinase inhibitors: hit identification and scaffold hopping” (Bioorg Med Chem Lett, 2009).

Chains of the proteins cited; added tags and fusions are not shown. Residues count along the entry.
UniProt P04626, whole entry: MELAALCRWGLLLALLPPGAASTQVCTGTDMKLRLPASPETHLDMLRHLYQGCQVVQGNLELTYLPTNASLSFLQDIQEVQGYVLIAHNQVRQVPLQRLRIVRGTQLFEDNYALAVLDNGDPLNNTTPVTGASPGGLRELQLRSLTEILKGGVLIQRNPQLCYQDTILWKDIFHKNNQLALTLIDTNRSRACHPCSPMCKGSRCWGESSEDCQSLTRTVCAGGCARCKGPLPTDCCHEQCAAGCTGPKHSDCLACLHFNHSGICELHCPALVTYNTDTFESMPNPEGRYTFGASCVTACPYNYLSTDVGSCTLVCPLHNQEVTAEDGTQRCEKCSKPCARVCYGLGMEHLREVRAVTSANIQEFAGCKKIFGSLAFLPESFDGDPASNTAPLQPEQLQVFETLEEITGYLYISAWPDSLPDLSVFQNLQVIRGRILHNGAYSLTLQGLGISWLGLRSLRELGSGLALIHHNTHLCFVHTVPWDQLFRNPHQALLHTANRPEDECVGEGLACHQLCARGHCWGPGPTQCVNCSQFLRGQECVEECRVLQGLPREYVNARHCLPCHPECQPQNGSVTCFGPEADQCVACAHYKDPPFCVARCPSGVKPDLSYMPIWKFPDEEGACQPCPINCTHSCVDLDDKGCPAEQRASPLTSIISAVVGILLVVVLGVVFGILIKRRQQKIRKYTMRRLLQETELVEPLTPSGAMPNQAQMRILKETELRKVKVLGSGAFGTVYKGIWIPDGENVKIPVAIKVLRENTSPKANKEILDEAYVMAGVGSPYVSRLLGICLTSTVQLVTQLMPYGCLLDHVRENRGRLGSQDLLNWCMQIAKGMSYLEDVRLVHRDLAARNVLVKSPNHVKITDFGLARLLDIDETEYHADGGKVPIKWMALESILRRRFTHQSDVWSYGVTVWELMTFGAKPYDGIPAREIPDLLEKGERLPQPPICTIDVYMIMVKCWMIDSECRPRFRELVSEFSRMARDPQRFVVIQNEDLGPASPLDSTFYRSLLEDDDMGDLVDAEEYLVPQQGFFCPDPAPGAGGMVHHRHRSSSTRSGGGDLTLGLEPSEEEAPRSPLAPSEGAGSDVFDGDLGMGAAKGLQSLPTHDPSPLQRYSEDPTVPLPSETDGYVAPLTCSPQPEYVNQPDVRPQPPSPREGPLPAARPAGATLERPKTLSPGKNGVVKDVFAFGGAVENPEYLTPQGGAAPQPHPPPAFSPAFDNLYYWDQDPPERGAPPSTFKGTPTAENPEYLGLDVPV
UniProt P00533, whole entry: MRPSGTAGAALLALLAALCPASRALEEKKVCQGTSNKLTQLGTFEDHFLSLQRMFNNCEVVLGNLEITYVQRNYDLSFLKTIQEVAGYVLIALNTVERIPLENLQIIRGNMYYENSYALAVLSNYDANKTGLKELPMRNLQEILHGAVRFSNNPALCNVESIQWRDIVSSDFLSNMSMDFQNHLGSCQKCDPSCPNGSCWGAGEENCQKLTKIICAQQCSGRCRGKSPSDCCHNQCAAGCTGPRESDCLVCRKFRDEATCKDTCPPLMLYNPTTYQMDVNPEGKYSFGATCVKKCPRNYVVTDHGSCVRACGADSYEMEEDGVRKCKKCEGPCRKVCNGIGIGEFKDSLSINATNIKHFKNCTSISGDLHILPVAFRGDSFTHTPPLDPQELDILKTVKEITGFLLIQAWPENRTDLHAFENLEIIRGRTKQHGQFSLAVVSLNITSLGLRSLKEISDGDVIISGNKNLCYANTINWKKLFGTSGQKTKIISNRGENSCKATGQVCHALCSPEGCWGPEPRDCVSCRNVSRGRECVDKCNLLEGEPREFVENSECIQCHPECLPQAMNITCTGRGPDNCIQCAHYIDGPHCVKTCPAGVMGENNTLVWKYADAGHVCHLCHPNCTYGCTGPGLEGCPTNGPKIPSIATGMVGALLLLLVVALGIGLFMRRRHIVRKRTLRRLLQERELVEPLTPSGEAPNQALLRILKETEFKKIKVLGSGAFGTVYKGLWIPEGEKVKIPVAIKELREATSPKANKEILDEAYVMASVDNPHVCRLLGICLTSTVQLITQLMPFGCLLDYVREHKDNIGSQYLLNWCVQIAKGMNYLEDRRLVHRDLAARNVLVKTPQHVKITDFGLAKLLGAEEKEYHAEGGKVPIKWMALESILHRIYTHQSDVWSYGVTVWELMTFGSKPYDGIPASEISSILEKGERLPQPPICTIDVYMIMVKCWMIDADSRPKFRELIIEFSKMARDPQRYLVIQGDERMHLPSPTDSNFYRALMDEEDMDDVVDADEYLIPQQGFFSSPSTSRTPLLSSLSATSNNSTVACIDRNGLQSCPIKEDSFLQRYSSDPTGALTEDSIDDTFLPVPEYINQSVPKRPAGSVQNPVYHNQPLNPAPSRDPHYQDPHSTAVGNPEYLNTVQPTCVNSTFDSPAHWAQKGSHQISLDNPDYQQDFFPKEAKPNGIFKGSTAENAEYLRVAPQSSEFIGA
UniProt P06213, 28-758 limits assumed: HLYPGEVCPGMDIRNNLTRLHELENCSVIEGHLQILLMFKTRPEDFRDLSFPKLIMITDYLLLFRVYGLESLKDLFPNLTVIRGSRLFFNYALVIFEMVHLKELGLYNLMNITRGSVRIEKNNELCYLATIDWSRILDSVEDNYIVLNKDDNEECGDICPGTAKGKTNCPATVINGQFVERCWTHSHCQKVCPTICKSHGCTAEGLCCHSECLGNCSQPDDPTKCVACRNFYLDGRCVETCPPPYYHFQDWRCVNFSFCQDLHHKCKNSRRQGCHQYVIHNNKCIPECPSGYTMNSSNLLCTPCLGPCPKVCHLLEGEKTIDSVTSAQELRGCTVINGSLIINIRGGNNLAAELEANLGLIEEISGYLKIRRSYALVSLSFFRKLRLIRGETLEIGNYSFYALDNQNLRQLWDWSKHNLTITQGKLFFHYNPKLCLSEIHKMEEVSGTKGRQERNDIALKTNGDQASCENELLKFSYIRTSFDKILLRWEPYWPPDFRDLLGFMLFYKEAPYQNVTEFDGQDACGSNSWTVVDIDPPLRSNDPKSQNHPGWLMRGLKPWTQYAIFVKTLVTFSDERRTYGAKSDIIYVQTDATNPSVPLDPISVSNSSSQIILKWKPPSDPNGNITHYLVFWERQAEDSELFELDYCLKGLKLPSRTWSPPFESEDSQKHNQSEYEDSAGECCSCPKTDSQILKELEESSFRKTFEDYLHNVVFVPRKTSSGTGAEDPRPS
UniProt P06213, 763-1382 limits assumed: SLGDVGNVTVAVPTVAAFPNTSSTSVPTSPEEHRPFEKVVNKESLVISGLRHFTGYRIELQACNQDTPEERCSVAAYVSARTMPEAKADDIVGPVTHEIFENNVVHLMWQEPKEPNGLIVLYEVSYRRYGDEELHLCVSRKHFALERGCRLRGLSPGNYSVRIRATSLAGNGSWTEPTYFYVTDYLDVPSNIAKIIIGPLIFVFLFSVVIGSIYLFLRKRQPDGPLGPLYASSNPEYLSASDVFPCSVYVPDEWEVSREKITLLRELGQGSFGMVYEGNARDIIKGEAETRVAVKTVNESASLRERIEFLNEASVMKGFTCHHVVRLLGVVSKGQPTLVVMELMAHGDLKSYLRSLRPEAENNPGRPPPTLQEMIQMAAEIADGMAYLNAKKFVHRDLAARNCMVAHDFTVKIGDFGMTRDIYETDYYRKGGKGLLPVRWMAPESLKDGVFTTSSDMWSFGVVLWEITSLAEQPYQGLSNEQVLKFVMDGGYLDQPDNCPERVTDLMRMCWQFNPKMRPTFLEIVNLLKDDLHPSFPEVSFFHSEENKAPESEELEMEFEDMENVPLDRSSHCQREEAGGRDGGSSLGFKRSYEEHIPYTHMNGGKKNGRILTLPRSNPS
UniProt P35968, whole entry: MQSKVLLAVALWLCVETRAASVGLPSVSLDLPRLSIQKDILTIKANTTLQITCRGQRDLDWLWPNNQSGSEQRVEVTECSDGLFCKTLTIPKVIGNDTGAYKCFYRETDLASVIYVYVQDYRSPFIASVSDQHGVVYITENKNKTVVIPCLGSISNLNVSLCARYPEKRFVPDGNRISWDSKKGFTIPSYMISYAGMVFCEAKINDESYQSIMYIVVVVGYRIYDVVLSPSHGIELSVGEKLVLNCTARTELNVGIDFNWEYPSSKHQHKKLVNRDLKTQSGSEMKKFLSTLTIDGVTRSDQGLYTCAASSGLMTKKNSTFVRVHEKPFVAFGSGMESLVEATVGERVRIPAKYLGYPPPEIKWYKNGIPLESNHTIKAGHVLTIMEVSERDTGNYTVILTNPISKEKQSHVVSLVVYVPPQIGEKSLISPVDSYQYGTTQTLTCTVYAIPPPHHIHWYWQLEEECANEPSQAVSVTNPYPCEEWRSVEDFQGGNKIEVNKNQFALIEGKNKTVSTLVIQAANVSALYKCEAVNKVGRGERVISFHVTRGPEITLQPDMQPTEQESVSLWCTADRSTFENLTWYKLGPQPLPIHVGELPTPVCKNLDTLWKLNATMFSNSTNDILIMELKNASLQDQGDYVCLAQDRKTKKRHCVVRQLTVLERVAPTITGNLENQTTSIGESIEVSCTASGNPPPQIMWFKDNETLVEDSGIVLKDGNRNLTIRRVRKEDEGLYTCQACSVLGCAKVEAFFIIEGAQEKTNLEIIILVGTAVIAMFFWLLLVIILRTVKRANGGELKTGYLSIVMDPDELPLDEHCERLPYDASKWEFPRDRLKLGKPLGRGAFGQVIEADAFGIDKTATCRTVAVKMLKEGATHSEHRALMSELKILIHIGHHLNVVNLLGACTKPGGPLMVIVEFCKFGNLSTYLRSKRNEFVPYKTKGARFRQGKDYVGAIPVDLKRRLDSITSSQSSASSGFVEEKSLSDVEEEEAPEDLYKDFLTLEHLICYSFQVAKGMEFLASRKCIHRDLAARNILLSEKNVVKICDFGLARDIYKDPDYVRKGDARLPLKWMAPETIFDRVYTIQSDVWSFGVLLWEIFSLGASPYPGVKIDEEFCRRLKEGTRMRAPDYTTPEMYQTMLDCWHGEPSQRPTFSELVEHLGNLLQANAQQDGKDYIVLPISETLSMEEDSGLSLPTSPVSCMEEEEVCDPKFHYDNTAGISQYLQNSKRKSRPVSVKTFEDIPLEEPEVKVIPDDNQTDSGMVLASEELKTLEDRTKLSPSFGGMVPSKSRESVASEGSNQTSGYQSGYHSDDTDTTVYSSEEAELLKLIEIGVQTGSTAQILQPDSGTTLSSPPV

Assays:
[1] = molecular target: Receptor tyrosine-protein kinase erbB-2 (Homo sapiens, UniProt P04626); assay: Inhibition of ErbB2 by virtual HTS assay
[2] = molecular target: Epidermal growth factor receptor (Homo sapiens, UniProt P00533); assay: Inhibition of EGFR by virtual HTS assay
Insulin receptor = Insulin receptor (Homo sapiens, UniProt P06213); assay: Inhibition of insulin receptor by virtual HTS assay
[3] = molecular target: Vascular endothelial growth factor receptor 2 (Homo sapiens, UniProt P35968); assay: Inhibition of VEGFR2 by virtual HTS assay

| IC50 [1] [µM] | IC50 [2] [µM] | IC50 (Insulin receptor) [µM] | IC50 [3] [µM] | SMILES |
| --- | --- | --- | --- | --- |
| > 10 | > 10 | > 10 | – | CNc1ccnc(Nc2ccc(-c3nc4ccccc4s3)cc2)n1 |
| – | – | – | 1.9 | COc1cc2nc(Nc3cc(C)[nH]n3)nc(Nc3cccc(-c4nc5ccccc5s4)c3)c2cc1OC |
